Tests used:
CBP BRD protein = CBP BRD protein (Homo sapiens, UniProt Q92793); test: CBP bromodomain TR-FRET inhibitory activity assay; conditions: read-out: CBP BRD IC50, Table 3
Description: A time resolved fluorescence resonance energy transfer (TR-FRET) experiment was used to verify the activity of CBP bromodomain.
The assay was performed in a final volume of 14 µL, optimized based on a CREBBP time resolved fluorescence resonance energy transfer (TR-FRET) assay kit (BPS Bioscience, cat. 32619) to maximize an assay window, and performed in a final volume of 14 µL, while maximizing the assay window. A TR-FRET fluorescence acceptor and a Tb donor were diluted in an assay buffer containing 2-[4-(2-hydroxyethyl)piperazin-1-yl]ethanesulfonic acid (HEPES) (hereafter, referred to as an assay buffer, BPS Bioscience, cat. 33012), and 3 µL of each solution was transferred to all wells of a white 384-low-volume well plate (Corning, cat. 4513). 2 µL of 4X Ac-H4 peptide (final concentration 85 nM) was transferred to high control wells and test wells. Each compound was prepared at 10 concentration points by serially diluting 3-fold from the highest concentration in a dimethyl sulfoxide solvent. The compound at each concentration was then diluted in the assay buffer to prepare a diluted compound solution that was 4-fold more concentrated than the final concentration. 2 µL of each compound or dimethyl sulfoxide prepared in this way was distributed into an assay plate so that the final test concentration was a minimum of 0.5 µM to a maximum of 10 µM (final dimethyl sulfoxide concentration 1%). 6 µL of 1X assay buffer was added to low control wells and 2 µl was added to high control and test wells. Then, 2 µL of 4X CBP BRD protein (final concentration 7.5 nM, BPS bioscience, cat 31128) was added to initiate a PPI reaction. The plate was reacted at room temperature for 2 hours before measuring the signal. The TR-FRET signal was measured using an EnVision Multilabel plate reader (PerkinElmer; Mirror LNACE/DELFIA Dual/Bias). For data analysis, the values of each well were obtained using a TR-FRET ratio ((Signal 665 nm/Signal 615 nm)×20000). Data analysis was performed using the TR-FRET ratio ((Signal 665 nm/Signal 615 nm)×20000). Data were reported as percent inhibition compared to control wells based on the following equation: %Activity = ((FRETcompound - FRETLow av)/(FRETHigh av - FRETLow av))×100. IC50 analysis was determined by standard 4 parameter curve fitting according to an algorithm using GraphPad Prism 7.0 (GraphPad Software Inc., La Jolla, CA, USA). All data are expressed as mean ± standard error of the mean (SEM).

Sequences of proteins named here, by UniProt entry; tags and fusion partners are left off. Residues count along the entry.
UniProt Q92793, 1085-1192 limits assumed: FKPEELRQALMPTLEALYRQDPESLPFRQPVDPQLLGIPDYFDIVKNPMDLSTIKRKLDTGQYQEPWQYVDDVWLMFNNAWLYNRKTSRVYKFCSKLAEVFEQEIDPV

BRD4 (BD1) protein = BRD4 (BD1) protein (Homo sapiens, UniProt O60885); test: BRD4 bromodomain TR-FRET inhibitory activity assay; conditions: read-out: BRD4 (BD1) IC50, Table 4
Description: BRD inhibitory activity was measured using a time resolved fluorescence resonance energy transfer (TR-FRET) experiment to verify the activity of BRD4 bromodomain.
The assay was performed in a final volume of 14 µL, optimized based on a CREBBP time resolved fluorescence resonance energy transfer (TR-FRET) assay kit (BPS Bioscience, cat. 32613) to maximize an assay window, and performed in a final volume of 14 µL, while maximizing the assay window. A TR-FRET fluorescence acceptor and a Tb donor were diluted in an assay buffer containing 2-[4-(2-hydroxyethyl)piperazin-1-yl]ethanesulfonic acid (HEPES) (hereafter, referred to as an assay buffer, BPS Bioscience, cat. 33012), and 3 µL of each solution was transferred to all wells of a white 384-low-volume well plate (Corning, cat. 4513). 2 µL of 4X Ac-H4 peptide (final concentration 15 nM) was transferred to high control wells and test wells. Each compound was prepared at 10 concentration points by serially diluting 3-fold from the highest concentration in a dimethyl sulfoxide (DMSO) solvent. The compound at each concentration was then diluted in the assay buffer to prepare a diluted compound solution that was 4-fold more concentrated than the final concentration. 2 µL of each compound or dimethyl sulfoxide prepared in this way was distributed into an assay plate so that the final test concentration was a minimum of 0.5 µM to a maximum of 10 µM (final DMSO concentration 1%). 6 µL of 1X assay buffer was added to low control wells and 2 µL was added to high control and test wells. Then, 2 µL of 4X BRD4 (BD1) protein (final concentration 7.5 nM, BPS bioscience, cat 31040) was added to initiate a PPI reaction. The plate was reacted at room temperature for 2 hours before measuring the signal. The TR-FRET signal was measured using an EnVision Multilabel plate reader (PerkinElmer; Mirror LNACE/DELFIA Dual/Bias). For data analysis, the values of each well were obtained using the TR-FRET ratio ((Signal 665 nm/Signal 615 nm)×20000). Data analysis was performed using the TR-FRET ratio ((Signal 665 nm/Signal 615 nm)×20000). Data were reported as percent inhibition compared to control wells based on the following equation: %Activity = ((FRETcompound - FRETLow av)/(FRETHigh av - FRETLow av))×100. IC50 analysis was determined by standard 4 parameter curve fitting according to an algorithm using GraphPad Prism 7.0 (GraphPad Software Inc., La Jolla, CA, USA). All data are expressed as mean ± standard error of the mean (SEM).

SMILES | IC50 (CBP BRD protein) | IC50 (BRD4 (BD1) protein)
Cn1cc(-c2cc3nc(C(C)(C)C)n(-c4cc(N5CCOCC5)c5c(c4)n(C)c(=O)n5C)c3cc2Cl)cn1 | < 0.5 µM | > 5 µM
Cn1cc(-c2cc3nc(C(C)(C)C)n(-c4cc(N5CCOCC5)c5c(c4)n(C)c(=O)n5C)c3cc2C(F)F)cn1 | < 0.5 µM | > 5 µM
Cn1cncc1-c1nc2cc(-c3ccc4c(c3)NC(=O)CO4)c(F)cc2n1-c1cc(C2CCOCC2)c2c(c1)n(C)c(=O)n2C | < 0.5 µM | > 5 µM
Cn1c(=O)n(C)c2c(N3CCOCC3)cc(-n3c(C(C)(C)C)nc4cc(C(=O)Nc5ccccc5)c(F)cc43)cc21 | < 0.5 µM | > 5 µM
Cn1cc(-c2cc3nc(-c4cncn4C)n(-c4cc(OC5COC5)c5c(c4)n(C)c(=O)n5C)c3cc2C(F)F)cn1 | < 0.5 µM | > 5 µM
COC1(C)CN(c2cc(-n3c(-c4cncn4C)nc4cc(-c5cnn(C)c5)c(F)cc43)cc3c2n(C)c(=O)n3C)C1 | < 0.5 µM | 0.5 to 5 µM
Cn1cc(-c2cc3nc(C(C)(C)C)n(-c4cc(N5CCOCC5)c5c(c4)n(C)c(=O)n5C)c3cc2N)cn1 | < 0.5 µM | > 5 µM
Cn1cc(-c2cc3nc(-c4cncn4C)n(-c4cc(N5CC(C)(O)C5)c5c(c4)n(C)c(=O)n5C)c3cc2C(F)(F)F)cn1 | < 0.5 µM | 0.5 to 5 µM
CNC(=O)c1ccc(-c2cc3nc(-c4cncn4C)n(-c4ccc5c(c4)n(C)c(=O)n5C)c3cn2)cc1F | < 0.5 µM | > 5 µM
CC(C)n1cc(-c2cc3nc(C(C)(C)C)n(-c4cc(N5CC(C)(O)C5)c5c(c4)n(C)c(=O)n5C)c3cc2C(F)(F)F)cn1 | < 0.5 µM | > 5 µM
Cn1cc(-c2cc3nc(C(C)(C)C)n(-c4cc(N5CCOCC5)c5c(c4)n(C)c(=O)n5C)c3cc2C(F)(F)F)cn1 | < 0.5 µM | > 5 µM
COc1cc(-c2cc3nc(C(C)(C)C)n(-c4cc(NC(C)C)c5c(c4)n(C)c(=O)n5C)c3cc2F)ccn1 | 0.5 to 5 µM | > 5 µM
Cn1cc(-c2cc3nc(C(C)(C)C)n(-c4cc(N5CC6C[C@H]5CO6)c5c(c4)n(C)c(=O)n5C)c3cc2C(F)F)cn1 | < 0.5 µM | < 0.5 µM
Cn1cc(-c2cc3nc(-c4cncn4C)n(-c4cc(C5=CCNCC5)c5c(c4)n(C)c(=O)n5C)c3cc2F)cn1 | 0.5 to 5 µM | > 5 µM
Cn1cc(-c2cc3nc(C(C)(C)C)n(-c4cc(OC5CCNCC5)c5c(c4)n(C)c(=O)n5C)c3cc2F)cn1 | < 0.5 µM | > 5 µM
COc1cc2c(cc1-c1cnn(C)c1)nc(-c1cncn1C)n2-c1cc(N2CC(C)(O)C2)c2c(c1)n(C)c(=O)n2C | < 0.5 µM | < 0.5 µM
COc1cccc(-c2cc3nc(-c4cncn4C)n(-c4ccc5c(c4)n(C)c(=O)n5C)c3cc2F)c1 | < 0.5 µM | > 5 µM
CC(=O)Nc1ccc(-c2cc3nc(-c4cncn4C)n(-c4cc(NCCN5CCOCC5)c5c(c4)n(C)c(=O)n5C)c3cc2F)cc1 | < 0.5 µM | 0.5 to 5 µM
CNc1cc2c(cc1-c1cnn(C)c1)nc(C(C)(C)C)n2-c1cc(N2CCOCC2)c2c(c1)n(C)c(=O)n2C | < 0.5 µM | 0.5 to 5 µM
C=Cn1cc(-c2cc3nc(C(C)(C)C)n(-c4cc(N5CC(C)(N(C)C)C5)c5c(c4)n(C)c(=O)n5C)c3cc2C(F)F)cn1 | < 0.5 µM | > 5 µM
Cn1c(=O)n(C)c2c(N3CC(C)(O)C3)cc(-n3c(C(C)(C)C)nc4cc(-c5cnn(CCN6CCOCC6)c5)c(C(F)F)cc43)cc21 | < 0.5 µM | > 5 µM

SMILES | IC50 (CBP BRD protein) | IC50 (BRD4 (BD1) protein)
Cn1cc(-c2cc3nc(-c4cncn4C)n(-c4cc(C5CCOCC5)c5c(c4)n(C)c(=O)n5C)c3cc2C(F)(F)F)cn1 | < 0.5 µM | > 5 µM
Cn1cc(-c2cc3nc(-c4cncn4C)n(-c4cc(N5CC(C)(C)C5)c5c(c4)n(C)c(=O)n5C)c3cc2F)cn1 | < 0.5 µM | 0.5 to 5 µM
Cn1cc(-c2cc3nc(C(C)(C)C)n(-c4cc(N5CCOCC5)c5c(c4)n(C)c(=O)n5C)c3cc2C=O)cn1 | < 0.5 µM | > 5 µM
Cc1ncc(-c2cc3nc(C(C)(C)C)n(-c4cc(N5CCOCC5)c5c(c4)n(C)c(=O)n5C)c3cn2)s1 | < 0.5 µM | > 5 µM
Cn1cc(-c2cc3nc(C(C)(C)C)n(-c4cc(N5CC(C)(O)C5)c5c(c4)n(C)c(=O)n5C)c3cc2OC(F)(F)F)cn1 | < 0.5 µM | 0.5 to 5 µM
Cn1cc(-c2cc3nc(-c4cncn4C)n(-c4cc(C5CCOCC5)c5c(c4)n(C)c(=O)n5C)c3cc2C(F)F)cn1 | < 0.5 µM | > 5 µM
Cn1cncc1-c1nc2cc(-c3cnn(CC4CC4)c3)c(F)cc2n1-c1cc(N2CCOCC2)c2c(c1)n(C)c(=O)n2C | < 0.5 µM | > 5 µM
Cn1cc(-c2cc3nc(-c4cncn4C)n(-c4cc(N5CCC5)c5c(c4)n(C)c(=O)n5C)c3cc2C(F)F)cn1 | < 0.5 µM | 0.5 to 5 µM
Cc1ncc(-c2cc3nc(C(C)(C)C)n(-c4cc(C5CCOCC5)c5c(c4)n(C)c(=O)n5C)c3cc2C(F)F)s1 | < 0.5 µM | > 5 µM
CC(C)Oc1cc(-n2c(-c3cccnc3)nc3cc(-c4cnn(C)c4)c(F)cc32)cc2c1n(C)c(=O)n2C | < 0.5 µM | > 5 µM
CC(=O)Nc1ccc(-c2cc3nc(-c4cncn4C)n(-c4cc(N5CCOCC5)c5c(c4)n(C)c(=O)n5C)c3cc2F)cc1 | < 0.5 µM | 0.5 to 5 µM
CC(C)Oc1cc(-n2c(C(C)(C)C)nc3cc(-c4cnn(C)c4)c(C#N)cc32)cc2c1n(C)c(=O)n2C | < 0.5 µM | > 5 µM
CNC(=O)c1ccc(-c2cc3nc(-c4cncn4C)n(-c4ccc5c(c4)n(C)c(=O)n5C)c3cc2C#N)cc1F | < 0.5 µM | > 5 µM
CCCNc1cc(-n2c(-c3cncn3C)nc3cc(-c4cnn(C)c4)c(F)cc32)cc2c1n(C)c(=O)n2C | < 0.5 µM | 0.5 to 5 µM
Cn1cc(-c2cc3nc(C(C)(C)C)n(-c4cc(N5CCC(C)(O)CC5)c5c(c4)n(C)c(=O)n5C)c3cc2C(F)F)cn1 | < 0.5 µM | 0.5 to 5 µM
Cn1cc(-c2cc3nc(C(C)(C)C)n(-c4cc(N5CCC(C)(O)C5)c5c(c4)n(C)c(=O)n5C)c3cc2C(F)F)cn1 (stereo not shown) | < 0.5 µM | > 5 µM
CC(C)Nc1cc(-n2c(C(C)(C)C)nc3cc(-c4cnn(C)c4)c(C#N)cc32)cc2c1n(C)c(=O)n2C | < 0.5 µM | > 5 µM
Cn1cc(-c2cc3nc(-c4cncn4C)n(-c4cc(C5=CCCCC5)c5c(c4)n(C)c(=O)n5C)c3cc2F)cn1 | < 0.5 µM | > 5 µM
Cn1cc(-c2cc3nc(-c4cncn4C)n(-c4cc(N5CC(O)C5)c5c(c4)n(C)c(=O)n5C)c3cc2F)cn1 | < 0.5 µM | 0.5 to 5 µM
COc1ccc(-c2cc(-n3c(-c4cncn4C)nc4cc(-c5cnn(C)c5)c(F)cc43)cc3c2n(C)c(=O)n3C)cc1 | < 0.5 µM | > 5 µM
